Source: ChEMBL document CHEMBL3297733, “Discovery and optimization of pyrrolo[1,2-a]pyrazinones leads to novel and selective inhibitors of PIM kinases” (Bioorg Med Chem, 2013)

Sequences of proteins named here, by UniProt entry; tags and fusion partners are left off. A change or cut given only in a name is not applied to a line headed by its entry.
UniProt Q9P1W9: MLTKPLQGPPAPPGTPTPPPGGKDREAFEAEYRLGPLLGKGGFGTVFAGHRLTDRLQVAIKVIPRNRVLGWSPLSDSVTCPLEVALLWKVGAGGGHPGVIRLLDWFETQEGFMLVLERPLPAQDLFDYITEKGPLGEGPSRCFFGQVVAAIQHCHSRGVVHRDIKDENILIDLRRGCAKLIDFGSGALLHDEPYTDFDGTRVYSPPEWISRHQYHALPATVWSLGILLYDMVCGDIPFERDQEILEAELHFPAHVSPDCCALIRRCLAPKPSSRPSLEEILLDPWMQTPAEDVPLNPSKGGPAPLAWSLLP

biological target: Serine/threonine-protein kinase pim-2 (Homo sapiens, UniProt Q9P1W9); test: Inhibition of human PIM2 using ARK-RERTYSFGHHA as substrate incubated for 60 mins prior to substrate addition by topcount scintillation counting analysis in presence of [P33gamma]-ATP

Row | Compound | IC50
1 | O=C(C[C@H]1CNC(=O)c2cc(-c3cccc(F)c3)cn21)N[C@H](CO)Cc1ccccc1 | 684 nM
2 | CN1CCN(C(=O)C[C@H]2CNC(=O)c3cc(-c4cccc(F)c4)cn32)[C@@H](c2ccccc2)C1 | 956 nM
3 | O=C(C[C@H]1CNC(=O)c2cc(-c3cccc(F)c3)cn21)N[C@H](CO)c1ccccc1 | 516 nM
4 | O=C(CC1CNC(=O)c2cc(-c3cccc(C(F)(F)F)c3)cn21)NCC1CCCCC1 (racemic) | > 5000 nM
5 | O=C(CC1CNC(=O)c2cc(-c3ccc(F)c(F)c3)cn21)NCc1ccco1 (racemic) | 2220 nM

Continued by falling IC50, values first:

Row | IC50 | Compound
6 | 502 nM | NC[C@@H](NC(=O)C[C@@H]1CNC(=O)c2cc(-c3ccnc(F)c3)cn21)c1ccccc1
7 | 252 nM | O=C(C[C@H]1CNC(=O)c2cc(-c3cccc(F)c3)cn21)N[C@H](CO)C1CCCCC1
8 | 184 nM | NC[C@@H](NC(=O)C[C@H]1CNC(=O)c2cc(-c3cccc(F)c3)cn21)c1ccccc1
9 | 97 nM | NC[C@@H](NC(=O)C[C@H]1CNC(=O)c2cc(-c3ccnc(F)c3)cn21)c1ccccc1
